Reference: EP4825855A1, “COMPOUND CONTAINING PYRAZOLE RING AND BICYCLIC HETEROARYL GROUP, PHARMACEUTICAL COMPOSITION THEREOF AND USE THEREOF” (dated 2026)

Chains of the proteins cited; added tags and fusions are not shown. Lines headed by an entry give the natural chain unless they say otherwise; changes in a name come on top.
UniProt Q06187, whole entry: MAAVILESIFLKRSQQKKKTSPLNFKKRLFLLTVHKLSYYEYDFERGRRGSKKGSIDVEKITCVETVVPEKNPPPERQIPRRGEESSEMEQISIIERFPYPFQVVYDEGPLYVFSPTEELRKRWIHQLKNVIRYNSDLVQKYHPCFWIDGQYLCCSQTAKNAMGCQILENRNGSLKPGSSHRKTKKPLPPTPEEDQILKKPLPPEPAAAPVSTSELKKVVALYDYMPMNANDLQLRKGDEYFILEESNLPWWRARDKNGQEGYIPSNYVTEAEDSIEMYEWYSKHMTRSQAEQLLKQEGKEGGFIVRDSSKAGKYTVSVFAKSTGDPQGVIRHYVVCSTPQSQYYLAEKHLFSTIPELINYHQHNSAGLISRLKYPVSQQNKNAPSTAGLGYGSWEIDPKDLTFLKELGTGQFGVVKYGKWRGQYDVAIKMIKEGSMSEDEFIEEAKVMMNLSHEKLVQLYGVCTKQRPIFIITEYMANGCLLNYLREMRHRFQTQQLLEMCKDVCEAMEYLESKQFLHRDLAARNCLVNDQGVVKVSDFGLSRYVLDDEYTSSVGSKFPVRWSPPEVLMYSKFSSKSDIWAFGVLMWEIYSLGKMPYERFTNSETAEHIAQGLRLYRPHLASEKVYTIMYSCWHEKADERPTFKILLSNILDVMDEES
UniProt Q06187, whole entry C481S: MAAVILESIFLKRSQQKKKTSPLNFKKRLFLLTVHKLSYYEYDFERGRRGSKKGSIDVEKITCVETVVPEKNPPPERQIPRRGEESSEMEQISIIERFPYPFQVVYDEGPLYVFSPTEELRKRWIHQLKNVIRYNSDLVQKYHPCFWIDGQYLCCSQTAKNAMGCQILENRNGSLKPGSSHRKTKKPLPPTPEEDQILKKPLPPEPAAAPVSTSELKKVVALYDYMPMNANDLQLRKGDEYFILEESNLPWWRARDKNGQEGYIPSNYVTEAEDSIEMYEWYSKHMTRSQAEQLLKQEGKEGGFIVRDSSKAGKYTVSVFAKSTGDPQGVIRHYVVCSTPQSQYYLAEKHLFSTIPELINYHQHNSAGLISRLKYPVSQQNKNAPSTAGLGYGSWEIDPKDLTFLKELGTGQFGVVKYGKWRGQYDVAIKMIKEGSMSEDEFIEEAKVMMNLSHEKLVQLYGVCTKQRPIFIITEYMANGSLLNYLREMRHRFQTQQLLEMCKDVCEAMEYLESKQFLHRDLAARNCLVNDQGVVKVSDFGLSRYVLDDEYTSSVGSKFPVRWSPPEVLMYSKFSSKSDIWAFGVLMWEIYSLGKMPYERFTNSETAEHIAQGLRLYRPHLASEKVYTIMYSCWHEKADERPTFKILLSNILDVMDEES

Assays:
BTK(WT) kinase = BTK(WT) kinase (Homo sapiens, UniProt Q06187); assay: Inhibitory activity against BTK(WT) kinase; details: read-out: BTK(WT) kinase inhibition IC50(nM )
Method: (§1) BTK kinase solution (concentration: 0.003 ng/µL) was added to assay wells at 6 µL/well, and different compounds dissolved in DMSO were added to the assay wells separately using a nanoliter pipettor, such that the final concentrations of the compounds were 1000 nM to 0.244 nM. The wells were set in duplicate, and a control well was set. After a 30-min incubation of the above system, ATP (concentration: 50 µM) was mixed with ULight-poly GT substrate (manufacturer: PerkinElmer, concentration: 0.5 µM) in a ratio of 1:1, and the mixture was added to the assay wells at 4 µL/well. The resulting mixture was left to react at room temperature for 2 h, and then 5 µL of EDTA was added to terminate the reaction, followed by the addition of 5 µL of a detection antibody (manufacturer: PerkinElmer, concentration: 8 nM). The mixture was incubated at room temperature for 1 h. The assay was performed using a PerkinElmer Envision multifunctional microplate reader (excitation: 320 nm, emission: 615 nm/665 nm), and IC50 was calculated by four-parameter fitting.

OCI-LY10 cells = assay: Inhibitory activity against OCI-LY10 cell proliferation (CCK-8); details: 72 h incubation
Method: OCI-LY10 cells in a good growth state were collected into a centrifuge tube, adjusted to a cell density of 9 × 10^4 cells/mL using an assay medium (1640 + 10% FBS), and seeded onto a 96-well plate (100 µL/well). The cells were incubated overnight in a cell incubator. Compounds were added using a nanoliter pipettor such that the final concentrations of the compounds were 1000 nM to 1.64 nM (the addition was performed in duplicate). Meanwhile, a control was set. After 72 h of incubation in the cell incubator, the assay reagent CCK-8 (manufacturer: Dojindo Laboratories; 10 µL/well) was added. After 4 h of incubation in the cell incubator, the absorbance values were measured at 450 nm on a PerkinElmer Envision microplate reader. A four-parameter analysis was performed, a dose-response curve was fitted, and IC50 was calculated. Table 1. Inhibitory activity against OCI-LY10 cell proliferation

BTK(C481S) kinase = BTK(C481S) kinase (Homo sapiens, UniProt Q06187, C481S); assay: Inhibitory activity against BTK(C481S) kinase; details: read-out: BTK(C481S) kinase inhibition IC50(nM )
Method: as §1, with “BTK(C481S)” for “BTK”, “0.006” for “0.003”, “fitting. The test results are shown in Table 3, where A represents: the IC50 value ≤ 10 nM.” for “fitting.”

Row | Structure (SMILES) | IC50 (BTK(WT) kinase) | IC50 (OCI-LY10 cells) | IC50 (BTK(C481S) kinase)
1 | [2H]C([2H])([2H])N1CCN(c2ccc(Nc3cnn(-c4ccc(CNc5nccc6c(F)ccc(OC)c56)cc4)c3C(N)=O)nc2C(OC)C2CC2)CC1 (stereo not shown) | < 10 nM | < 10 nM | < 10 nM
2 | COc1ccc(F)c2ccnc(NCc3ccc(-n4ncc(Nc5ccc(N6CCN(C7COC7)CC6)c(C(O)C(F)(F)F)n5)c4C(N)=O)cc3)c12 (racemic) | < 10 nM | – | < 10 nM
3 | CN(C)C1CCC(Nc2ccc(Nc3cnn(-c4ccc(CNC(=O)c5cc(F)cc6cccnc56)cc4)c3C(N)=O)nc2)CC1 (stereo not shown) | < 10 nM | < 10 nM | < 10 nM
4 | CCC(OC)c1nc(Nc2cnn(-c3ccc(CNC(=O)c4cc(F)cc5cccnc45)cc3)c2C(N)=O)ccc1NC1CCC(N(C)C)CC1 (stereo not shown) | < 10 nM | < 10 nM | < 10 nM
5 | COc1ccc(F)c2ccnc(NCc3ccc(-n4ncc(Nc5ccc(NC6CCC(N(C)C)CC6)c(C)n5)c4C(N)=O)cc3)c12 (single isomer, unassigned) | < 10 nM | < 10 nM | < 10 nM
6 | COCCN1CCC(c2ccc(Nc3cnn(-c4ccc(CNc5nccc6c(F)ccc(OC)c56)cc4)c3C(N)=O)nc2C(C)O)CC1 (racemic) | < 10 nM | < 10 nM | < 10 nM
7 | COCCN1CCN(c2ccc(Nc3cnn(-c4ccc(CNc5nc(C)cc6c(F)ccc(OC)c56)cc4)c3C(N)=O)nc2C(O)C(F)(F)F)CC1 (stereo not shown) | < 10 nM | – | < 10 nM
8 | COc1ccc(F)c2ccnc(NCc3ccc(-n4ncc(Nc5ccc(N6CCN(C)CC6)c(C(O)C(F)(F)F)n5)c4C(N)=O)cc3)c12 (racemic) | < 10 nM | – | < 10 nM
9 | COCCN1CCN(c2ccc(Nc3cnn(-c4ccc(CNc5nccc6c(F)ccc(OC)c56)cc4)c3C(N)=O)nc2C(O)C(F)F)CC1 (racemic) | < 10 nM | < 10 nM | < 10 nM
10 | COCCN1CCN(c2ccc(Nc3cnn(-c4ccc(CNc5nccc6c(F)ccc(OC)c56)cc4)c3C(N)=O)nc2C(O)C(F)(F)F)CC1 (racemic) | < 10 nM | < 10 nM | < 10 nM
11 | COc1ccc(F)c2ccnc(NCc3ccc(-n4ncc(Nc5ccc(N6CCN(C7COC7)CC6)c(C(O)C6CC6)n5)c4C(N)=O)cc3)c12 (racemic) | < 10 nM | < 10 nM | < 10 nM
12 | CCC(O)c1nc(Nc2cnn(-c3ccc(CNc4nccc5c(F)ccc(OC)c45)cc3)c2C(N)=O)ccc1N1CCN(C2COC2)CC1 (stereo not shown) | < 10 nM | < 10 nM | < 10 nM
13 | CC1CN(C2COC2)CCN1c1ccc(Nc2cnn(-c3ccc(CNC(=O)c4cc(F)cc5cccnc45)cc3)c2C(N)=O)nc1 (stereo not shown) | < 10 nM | < 10 nM | < 10 nM
14 | COc1ccc(F)c2ccnc(NCc3ccc(-n4ncc(Nc5ccc(N6CCN(C)C(C)C6)c(C(O)C(F)(F)F)n5)c4C(N)=O)cc3)c12 (stereo not shown) | < 10 nM | < 10 nM | < 10 nM
15 | COc1ccc(F)c2cc(C)nc(NCc3ccc(-n4ncc(Nc5ccc(NC6CCC(N(C)C)CC6)cn5)c4C(N)=O)cc3)c12 (single isomer, unassigned) | < 10 nM | – | < 10 nM
16 | COc1ccc(F)c2cc(C)nc(NCc3ccc(-n4ncc(Nc5ccc(N6CCN(C7COC7)CC6)c(C(O)C(F)(F)F)n5)c4C(N)=O)cc3)c12 (racemic) | < 10 nM | < 10 nM | < 10 nM
17 | COc1ccc(F)c2cc(C)nc(NCc3ccc(-n4ncc(Nc5ccc(NC6CCN(C)CC6)c(C(O)C(F)(F)F)n5)c4C(N)=O)cc3)c12 (stereo not shown) | < 10 nM | < 10 nM | < 10 nM
18 | C[C@@H]1CN(C2COC2)CCN1c1ccc(Nc2cnn(-c3ccc(CNC(=O)c4cc(F)cc5cccnc45)cc3)c2C(N)=O)nc1C(O)C(F)(F)F (single isomer, unassigned) | < 10 nM | < 10 nM | < 10 nM
19 | COc1ccc(F)c2ccnc(NCc3ccc(-n4ncc(Nc5ccc(NC6CCC(N(C)C)CC6)cn5)c4C(N)=O)cc3)c12 (stereo not shown) | < 10 nM | – | < 10 nM

Continued, values first:

Row | IC50 (BTK(WT) kinase) | IC50 (OCI-LY10 cells) | IC50 (BTK(C481S) kinase) | Structure (SMILES)
20 | < 10 nM | < 10 nM | < 10 nM | [2H]C([2H])([2H])OCc1nc(Nc2cnn(-c3ccc(CNC(=O)c4cc(F)cc5cccnc45)cc3)c2C(N)=O)ccc1N1CCN(CCOC)CC1
21 | < 10 nM | – | < 10 nM | COCCN1CCN(c2ccc(Nc3cnn(-c4ccc(CNC(=O)c5cc(F)cc6cccnc56)cc4)c3C(N)=O)nc2C(C)O)CC1 (racemic)
22 | < 10 nM | < 10 nM | < 10 nM | COCCN1CCN(c2ccc(Nc3cnn(-c4ccc(CNC(=O)c5cc(F)cc6cccnc56)cc4)c3C(N)=O)nc2C(O)C(F)(F)F)CC1 (stereo not shown)
23 | < 10 nM | < 10 nM | < 10 nM | COCCN1CCN(c2ccc(Nc3cnn(-c4ccc(CNC(=O)c5cc(F)cc6cccnc56)cc4)c3C(N)=O)nc2COC)CC1
24 | < 10 nM | – | < 10 nM | CN1CCN(c2ccc(Nc3cnn(-c4ccc(CNC(=O)c5cc(F)cc6cccnc56)cc4)c3C(N)=O)nc2)CC1
25 | < 10 nM | < 10 nM | < 10 nM | C=CCCC(O)c1nc(Nc2cnn(-c3ccc(CNC(=O)c4cc(F)cc5cccnc45)cc3)c2C(N)=O)ccc1N1CCN(C)CC1 (stereo not shown)
26 | < 10 nM | < 10 nM | < 10 nM | COCCN1CCN(c2ccc(Nc3cnn(-c4ccc(CNC(=O)c5cc(F)cc6cccnc56)cc4)c3C(N)=O)nc2C(C)OC)CC1 (racemic)
27 | < 10 nM | < 10 nM | < 10 nM | COCCN1CCN(c2ccc(Nc3cnn(-c4ccc(CNc5nc(C)cc6c(F)ccc(OC)c56)cc4)c3C(N)=O)nc2C(C)OC)CC1 (stereo not shown)
28 | < 10 nM | < 10 nM | < 10 nM | CN1CCN(c2ccc(Nc3cnn(-c4ccc(CNC(=O)c5cc(F)cc6cccnc56)cc4)c3C(N)=O)nc2C(O)C2CC2)CC1 (racemic)
29 | < 10 nM | < 10 nM | < 10 nM | [2H]C([2H])([2H])OC(C)c1nc(Nc2cnn(-c3ccc(CNC(=O)c4cc(F)cc5cccnc45)cc3)c2C(N)=O)ccc1N1CCN(CCOC)CC1 (stereo not shown)
30 | < 10 nM | < 10 nM | < 10 nM | CN(C)C1CCN(c2ccc(Nc3cnn(-c4ccc(CNC(=O)c5cc(F)cc6cccnc56)cc4)c3C(N)=O)nc2C(O)C(F)(F)F)CC1 (stereo not shown)
31 | < 10 nM | < 10 nM | < 10 nM | CCOC(C)c1nc(Nc2cnn(-c3ccc(CNC(=O)c4cc(F)cc5cccnc45)cc3)c2C(N)=O)ccc1N1CCN(CCOC)CC1 (stereo not shown)
32 | < 10 nM | < 10 nM | < 10 nM | NC(=O)c1c(Nc2ccc(N3CCN(C4COC4)CC3)c(C(O)C3CC3)n2)cnn1-c1ccc(CNC(=O)c2cc(F)cc3cccnc23)cc1 (single isomer, unassigned)
33 | < 10 nM | < 10 nM | < 10 nM | COCCN1CCC(c2ccc(Nc3cnn(-c4ccc(CNC(=O)c5cc(F)cc6cccnc56)cc4)c3C(N)=O)nc2C(C)O)CC1 (stereo not shown)
34 | < 10 nM | < 10 nM | < 10 nM | [2H]C([2H])([2H])OCCN1CCN(c2ccc(Nc3cnn(-c4ccc(CNc5nccc6c(F)ccc(OC)c56)cc4)c3C(N)=O)nc2C(C)OC)CC1 (stereo not shown)
35 | < 10 nM | < 10 nM | < 10 nM | [2H]C([2H])([2H])OC(C)c1nc(Nc2cnn(-c3ccc(CNc4nccc5c(F)ccc(OC)c45)cc3)c2C(N)=O)ccc1N1CCN(CCOC)CC1 (stereo not shown)
36 | < 10 nM | < 10 nM | < 10 nM | COCCN1CCN(c2ccc(Nc3cnn(-c4ccc(CNC(=O)c5cc(F)cc6cccnc56)cc4)c3C(N)=O)nc2C(C)OC)CC1 (single isomer, unassigned)
37 | < 10 nM | < 10 nM | < 10 nM | COC(c1nc(Nc2cnn(-c3ccc(CNC(=O)c4cc(F)cc5cccnc45)cc3)c2C(N)=O)ccc1N1CCN(C2COC2)CC1)C(F)(F)F (stereo not shown)
38 | < 10 nM | – | < 10 nM | CN1CCN(c2ccc(Nc3cnn(-c4ccc(CNC(=O)c5cc(F)cc6cccnc56)cc4)c3C(N)=O)cc2)CC1
